The source of these data is patent publication US11428693B2, “Method of high throughput screening of chemical compounds suppressing nucleolar hypertrophy” (Baylor College of Medicine, priority 2017, dated 2022).

In assay [1] the test system is Normal Mouse Embryonal Fibroblast Cells.
The subject of assay [2] is 4E-BP1 phosphorylation in SW1116 cells.
In assay [3] the test system is 4E-BP1 phosphorylation in HCT-15 cells.

`CC(C)n1nc(-c2cc3cc(O)ccc3[nH]2)c2c(N)ncnc21` [pp242, 2-(4-amino-1-isopropyl-1H-pyrazolo[3,4-d]pyrimidin-3-yl)-1H-indol-5-ol]: the “nucleoli hypertrophy (number of nucleoli per cell nucleus)” value in assay [1] is “reversion of nucleoli hypertrophy”; in the assay with AGS cells it was “reversion of nucleoli hypertrophy”; with MDA-MB-435 cells, “complete reversion of nucleoli hypertrophy”. Moreover, the “4E-BP1 phosphorylation of Tr37, Tr46, Tr70 and Ser 65” value in assay [2] and in assay [3] was “inhibited” in each case.
